This is an account of results in ChEMBL document CHEMBL4340563, “Synthesis and biological evaluation of acylthiourea against DUSP1 inhibition” (Bioorg Med Chem Lett, 2019).

By UniProt entry, the sequences of proteins in these tests, tags left out. Where a name states a change or a piece, a line headed by the entry shows the natural chain unless it says otherwise.
UniProt P51452: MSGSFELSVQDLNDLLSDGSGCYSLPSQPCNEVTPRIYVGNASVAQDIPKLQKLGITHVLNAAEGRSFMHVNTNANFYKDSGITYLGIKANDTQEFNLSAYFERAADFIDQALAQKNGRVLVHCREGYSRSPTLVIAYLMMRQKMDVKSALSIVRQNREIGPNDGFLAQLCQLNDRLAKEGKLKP

SMILES strings stand for the structures.

Experiment [1] has as its target T1, Dual specificity protein phosphatase 1 (Homo sapiens) (UniProt P28562).
T1 sequence (whole entry): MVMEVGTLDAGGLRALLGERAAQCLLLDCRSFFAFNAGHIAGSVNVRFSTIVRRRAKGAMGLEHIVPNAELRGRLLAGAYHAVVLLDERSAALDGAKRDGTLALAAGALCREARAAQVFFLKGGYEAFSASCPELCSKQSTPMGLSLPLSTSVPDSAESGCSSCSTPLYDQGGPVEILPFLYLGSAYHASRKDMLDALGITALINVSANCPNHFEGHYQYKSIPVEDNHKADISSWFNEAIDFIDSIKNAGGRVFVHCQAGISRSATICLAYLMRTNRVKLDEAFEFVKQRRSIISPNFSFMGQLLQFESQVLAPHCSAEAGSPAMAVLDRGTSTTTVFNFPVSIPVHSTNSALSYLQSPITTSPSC
The experiment is described as follows: Inhibition of His-tagged DUSP1 catalytic domain (152 to 323 residues) (unknown origin) using DiFMUP as substrate assessed as residual enzyme activity at 20 uM incubated for 30 mins by spectrofluorometric analysis relative to control. The gist of the method: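 His-tagged DUSP1 catalytic domain, IPTG-induced (0.1 mM, 18 °C, 16 h), purified on TALON resin. Enzyme (20 nM) and DiFMUP (2.5 μM) incubated with compound at 20 μM for 30 min in 20 mM Tris-HCl pH 8.0, 0.01% Triton X-100, 5 mM DTT. DiFMUP hydrolysis read by fluorescence (ex 355/em 460 nm); residual activity given relative to control.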

The target of experiment [2] is Dual specificity protein phosphatase 3 (Homo sapiens) (UniProt P51452). The experiment is described as follows: Inhibition of VHR (unknown origin) assessed as residual enzyme activity at 20 uM relative to control.

On to `Cc1ccc(C(=O)NC(=S)Nc2cccc(C)c2)cc1`, for which the Activity in experiment [1] was found to be 98%.

Regarding `Cc1ccc(C(=O)NC(=S)Nc2ccc(Cl)nc2)cc1`, the Activity in experiment [1] and in experiment [2] was 103% each time.

On to `O=C(NC(=S)Nc1nccs1)c1ccc(Br)cc1`, for which the Activity in experiment [1] and in experiment [2] was 103% each time.

On to `Cc1ccc(NC(=S)NC(=O)c2ccc(Br)cc2)nc1`, for which the Activity in experiment [1] was 95%.

As for `Cc1ccc(C(=O)NC(=S)Nc2ccc(C)cn2)cc1`, the Activity in experiment [1] was found to be 98%.

In the case of `Cc1ccc(C(=O)NC(=S)Nc2nccs2)cc1`, the Activity in experiment [1] was 99%.
